Laboratory results: PubChem BioAssay AID630 (Emory University Molecular Libraries Screening Center, 2007)
Only a part is listed here, and it is no random draw. The source made the active and inactive calls.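 The calls were made as follows: active = compounds that reduce the energy-transfer binding signal between the protein and its labelled peptide by more than half; inactive = the rest.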

Protein sequences, listed by entry. Tags and fused reporters are not part of them.
UniProt P84022, whole entry, looked up: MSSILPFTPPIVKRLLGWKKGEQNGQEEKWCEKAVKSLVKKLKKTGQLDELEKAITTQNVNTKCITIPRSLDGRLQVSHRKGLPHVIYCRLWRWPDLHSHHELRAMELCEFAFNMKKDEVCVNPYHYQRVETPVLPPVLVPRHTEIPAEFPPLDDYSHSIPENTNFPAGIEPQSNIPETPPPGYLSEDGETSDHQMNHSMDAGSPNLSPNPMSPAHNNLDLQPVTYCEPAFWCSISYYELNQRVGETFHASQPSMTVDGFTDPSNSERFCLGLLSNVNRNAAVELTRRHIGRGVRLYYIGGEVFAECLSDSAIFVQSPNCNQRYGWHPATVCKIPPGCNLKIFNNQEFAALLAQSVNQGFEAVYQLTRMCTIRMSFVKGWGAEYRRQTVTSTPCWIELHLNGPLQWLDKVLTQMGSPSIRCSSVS

The molecules below were run against Mothers against decapentaplegic homolog 3 (Homo sapiens) (UniProt P84022) (assay: blockers of Smad3 binding to FoxH1 – biochemical, TR-FRET, primary screen (AID 630;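 also: 0% = Smad3 plus labelled peptide maximal FRET and 100% = peptide-only background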)). Conditions: TR-FRET Smad3/Dy647-FoxH1 peptide binding, europium anti-His; at 25 µM; active compounds read high.

| Structure (SMILES) | inhibition |
| --- | --- |
| COC(=O)c1cc2c(s1)N=C(c1ccccc1)N(C)P2(=O)N1CCOCC1 (configuration not stated) | inactive: 7.11% |
| O=P1(Nc2nc3ccc(Cl)cc3s2)COc2ccccc2O1 (configuration not stated) | inactive: -24.3% |
| c1nnnn1CCn1cnnn1 | inactive: -3.05% |
| O=P(Nc1nccs1)(c1ccccc1)c1ccccc1 | inactive: 6.67% |
| C[C@@H](O)COc1ccc([As](=O)(O)O)cc1N | inactive: 1.19% |
| CN1CCC[C@H](OC(=O)C(c2ccccc2)c2ccccc2)C1 | inactive: -0.27% |
| [N-]=[N+]=Nc1ccc([As](=O)(O)O)cc1 | inactive: 11.3% |
| O=C(OC1CN2CCC1CC2)c1cccc(Cl)c1 (configuration not stated) | inactive: -4.33% |
| CCc1nc2c(n1)c1c(non1O)c1c2no[n+]1[O-] | inactive: 7.62% |
| O=[N+]([O-])c1cccc2n[nH]nc12 | inactive: -2.28% |
| O=C(CO)Nc1ccc([As](=O)(O)O)cc1 | inactive: -1.78% |
| CC1CCN(C(=O)Oc2c(Cl)cc(Cl)c3cccnc23)CC1 | inactive: -27.5% |
| CN1CCCC(OC(=O)C(c2ccccc2)c2ccccc2)C1 (configuration not stated) | inactive: -2.93% |
| O=[N+]([O-])c1ccc(C[As](=O)(O)O)cc1 | inactive: 1.41% |
| NCC[C@@H](N)CSP(=O)(O)O | inactive: 11% |
| Oc1ccccc1CNc1ccccn1 | inactive: 0.72% |
| Cc1c2non([O-])c-2c(C)[n+](=O)[n+]1[O-] | inactive: 12.7% |
| CCOP(=O)(Nc1ccccc1)OCC | inactive: 0.23% |
| C(Cc1nn[nH]n1)c1nn[nH]n1 | inactive: -3.39% |
| [N-]=[N+]=NCC(O)CN=[N+]=[N-] (configuration not stated) | inactive: 2.48% |
| O=[As]c1ccc(S(=O)(=O)NCCO)cc1 (configuration not stated) | inactive: 33.8% |

| Structure (SMILES) | inhibition |
| --- | --- |
| ClCCSc1nnc(-c2cccnc2)o1 | inactive: -9.56% |
| [N-]=[N+]=NCC(N)=O | inactive: 8.64% |
| NC(=O)Nc1cc([As](=O)(O)O)cc(I)c1O | inactive: 11.1% |
| O=C(OC1CN2CCC1CC2)C12CC3CC(CC(C3)C1)C2 (configuration not stated) | inactive: 3.29% |
| O=C(O)[C@@H](O)c1ccc([As](=O)(O)O)cc1 | inactive: -18.4% |
| O=C(COc1ccccc1)OC1CN2CCC1CC2 (configuration not stated) | inactive: -9.88% |
| COP1(=S)c2c(C)nn(CCC#N)c2N=C(c2ccc(F)cc2)N1C (configuration not stated) | inactive: 11.8% |
| CCC(C)N(CC(C)C)C(=S)SC(NC(C)=O)C(Cl)(Cl)Cl (configuration not stated) | inactive: -5.92% |
| Cc1nn(-c2ccccc2)c2c1P(=O)(N1CCOCC1)N(C)C(c1ccccc1)=N2 (configuration not stated) | inactive: 9.72% |
| O=P1(Nc2ccc(Br)cn2)COc2ccccc2OC1 | inactive: 0.12% |
| Cc1ccc(OCC(=O)OC2CN3CCC2CC3)cc1 (configuration not stated) | inactive: 0.33% |
| O=P1(Nc2ncccn2)COc2ccccc2OC1 | inactive: 0.62% |
| Clc1n[nH]nc1-c1nn[nH][15n]1 | inactive: -0.88% |
| O=P1(Nc2ccccn2)COc2ccccc2OC1 | inactive: -4.91% |
| CC1(CBr)Cn2c(nc3ccccc3c2=O)S1 (configuration not stated) | inactive: 1.68% |
| Cc1cccc(OCC(=O)OC2CN3CCC2CC3)c1 (configuration not stated) | inactive: 3.31% |
| O=C(CC(=O)c1ccccc1)O[C@H]1CN2CCC1CC2 | inactive: -0.31% |
| NS(=O)(=O)Cc1ccc([As](=O)(O)O)cc1 | inactive: -1.25% |
| O=[As](O)(O)c1ccc([As](=O)(O)O)cc1 | inactive: -5.17% |
| CCOP1(=S)c2c(C)nn(CCC#N)c2N=C(c2ccccc2F)N1C (configuration not stated) | inactive: 0.37% |
| CCOP1(=S)c2c(C)nn(CCC#N)c2N=C(c2ccc(F)cc2)N1C (configuration not stated) | inactive: 0.64% |
